Results published in ChEMBL document CHEMBL4433209, “Novel Cyclic Biphalin Analogues by Ruthenium-Catalyzed Ring Closing Metathesis: in Vivo and in Vitro Biological Profile” (2019).

Protein sequences, listed by entry. Tags and fused reporters are not part of them. Lines headed by an entry give the natural chain unless they say otherwise; changes in a name come on top.
UniProt P35372, whole entry, looked up: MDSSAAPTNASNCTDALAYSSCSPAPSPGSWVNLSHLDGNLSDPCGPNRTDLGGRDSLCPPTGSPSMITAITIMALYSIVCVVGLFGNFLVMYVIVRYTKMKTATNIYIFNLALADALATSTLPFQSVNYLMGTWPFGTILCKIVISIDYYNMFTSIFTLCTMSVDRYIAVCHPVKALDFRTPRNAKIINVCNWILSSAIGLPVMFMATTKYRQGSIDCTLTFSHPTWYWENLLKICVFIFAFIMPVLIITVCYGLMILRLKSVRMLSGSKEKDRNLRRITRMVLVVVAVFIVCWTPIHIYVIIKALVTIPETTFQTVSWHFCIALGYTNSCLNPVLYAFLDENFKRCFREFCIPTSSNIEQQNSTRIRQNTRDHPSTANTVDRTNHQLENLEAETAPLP
UniProt P41143, whole entry, looked up: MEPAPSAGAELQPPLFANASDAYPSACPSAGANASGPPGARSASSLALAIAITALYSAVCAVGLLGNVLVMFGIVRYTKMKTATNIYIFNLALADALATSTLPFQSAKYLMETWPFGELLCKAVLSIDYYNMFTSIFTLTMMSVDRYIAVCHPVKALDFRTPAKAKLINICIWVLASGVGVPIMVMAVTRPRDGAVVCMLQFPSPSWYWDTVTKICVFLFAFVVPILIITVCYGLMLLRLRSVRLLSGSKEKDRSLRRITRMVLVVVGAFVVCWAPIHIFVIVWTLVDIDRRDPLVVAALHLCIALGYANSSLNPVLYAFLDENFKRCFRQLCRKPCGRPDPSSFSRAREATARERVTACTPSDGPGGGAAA
UniProt P41145: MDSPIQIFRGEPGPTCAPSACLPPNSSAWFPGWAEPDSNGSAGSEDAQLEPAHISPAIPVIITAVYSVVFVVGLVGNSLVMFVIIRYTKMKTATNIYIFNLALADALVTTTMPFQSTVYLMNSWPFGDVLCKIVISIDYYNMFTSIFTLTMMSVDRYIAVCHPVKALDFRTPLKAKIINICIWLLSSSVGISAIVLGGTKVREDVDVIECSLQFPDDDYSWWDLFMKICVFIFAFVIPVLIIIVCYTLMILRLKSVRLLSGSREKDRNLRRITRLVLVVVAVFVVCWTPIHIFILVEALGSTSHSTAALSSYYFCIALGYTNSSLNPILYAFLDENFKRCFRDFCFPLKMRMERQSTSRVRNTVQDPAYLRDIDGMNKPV

Experiments:
Mu-type opioid receptor [1] = target: T1, Mu-type opioid receptor (Homo sapiens, UniProt P35372); test: Displacement of [3H]-diprenorphine from human mu opioid receptor expressed in CHO cell membranes incubated for 1 hr by micro beta2 scintillation counting method
[2] = target: T2, Delta-type opioid receptor (Homo sapiens, UniProt P41143); test: Displacement of [3H]-diprenorphine from human delta opioid receptor expressed in CHO cell membranes incubated for 1 hr by micro beta2 scintillation counting method
[3] = target: T3, Kappa-type opioid receptor (Homo sapiens, UniProt P41145); test: Displacement of [3H]-diprenorphine from human kappa opioid receptor expressed in CHO cell membranes incubated for 1 hr by micro beta2 scintillation counting method
Mu-type opioid receptor [4] = target: T1, Mu-type opioid receptor; test: Agonist activity at human mu opioid receptor expressed in CHO cell membranes incubated for 1 hr by [35S]GTPgammaS binding assay
[5] = target: T3, Kappa-type opioid receptor; test: Agonist activity at human kappa opioid receptor expressed in CHO cell membranes incubated for 1 hr by [35S]GTPgammaS binding assay
[6] = target: T2, Delta-type opioid receptor; test: Antagonist activity at human delta opioid receptor expressed in CHO cell membranes assessed as reduction in SNC80-induced [35S]GTPgammaS binding incubated for 1 hr
Mus musculus [7] = test: Analgesic activity in CD1 mouse at 0.15 nmol, icv measured after 60 mins by hot plate test relative to control
Mus musculus [8] = test: Analgesic activity in CD1 mouse at 1.5 nmol, iv measured after 45 mins by hot plate test relative to control

| SMILES | Ki (Mu-type opioid receptor [1]) | Ki [2] | Ki [3] | EC50 (Mu-type opioid receptor [4]) | EC50 [5] | IC50 [6] | MPE (Mus musculus [7]) | MPE (Mus musculus [8]) |
| --- | --- | --- | --- | --- | --- | --- | --- | --- |
| N[C@@H](Cc1ccc(O)cc1)C(=O)N[C@@H]1C/C=C\C[C@@H](NC(=O)[C@@H](N)Cc2ccc(O)cc2)C(=O)NCC(=O)N[C@@H](Cc2ccccc2)C(=O)NNC(=O)[C@H](Cc2ccccc2)NC(=O)CNC1=O | 0.0758 µM | 0.0073 µM | 0.495 µM | 0.0196 µM | 1.84 µM | 0.0448 µM | – | – |
| N[C@@H](Cc1ccc(O)cc1)C(=O)N[C@@H]1C/C=C/C[C@@H](NC(=O)[C@@H](N)Cc2ccc(O)cc2)C(=O)NCC(=O)N[C@@H](Cc2ccccc2)C(=O)NNC(=O)[C@H](Cc2ccccc2)NC(=O)CNC1=O.O=C(O)C(F)(F)F.O=C(O)C(F)(F)F | – | – | – | – | – | – | >=50% | >=50% |
| N[C@@H](Cc1ccc(O)cc1)C(=O)N[C@@H]1C/C=C/C[C@@H](NC(=O)[C@@H](N)Cc2ccc(O)cc2)C(=O)NCC(=O)N[C@@H](Cc2ccccc2)C(=O)NNC(=O)[C@H](Cc2ccccc2)NC(=O)CNC1=O | 0.0536 µM | 0.0052 µM | 0.686 µM | 0.0177 µM | 0.969 µM | 0.00036 µM | – | – |
| N[C@@H](Cc1ccc(O)cc1)C(=O)N[C@@H]1C/C=C\C[C@@H](NC(=O)[C@@H](N)Cc2ccc(O)cc2)C(=O)NCC(=O)N[C@@H](Cc2ccccc2)C(=O)NNC(=O)[C@H](Cc2ccccc2)NC(=O)CNC1=O.O=C(O)C(F)(F)F.O=C(O)C(F)(F)F | – | – | – | – | – | – | < 50% | < 50% |
